Measured values: ChEMBL document CHEMBL6114988, “Design, synthesis and biological evaluation of dual CDK9/PARP inhibitors for the treatment of cancer” (Eur J Med Chem, 2025)
Activity calls are given as the source filed them. No cut-off for these calls is given here.

Amino acid sequences for entries named in this document (tags omitted).
UniProt P09874, whole entry: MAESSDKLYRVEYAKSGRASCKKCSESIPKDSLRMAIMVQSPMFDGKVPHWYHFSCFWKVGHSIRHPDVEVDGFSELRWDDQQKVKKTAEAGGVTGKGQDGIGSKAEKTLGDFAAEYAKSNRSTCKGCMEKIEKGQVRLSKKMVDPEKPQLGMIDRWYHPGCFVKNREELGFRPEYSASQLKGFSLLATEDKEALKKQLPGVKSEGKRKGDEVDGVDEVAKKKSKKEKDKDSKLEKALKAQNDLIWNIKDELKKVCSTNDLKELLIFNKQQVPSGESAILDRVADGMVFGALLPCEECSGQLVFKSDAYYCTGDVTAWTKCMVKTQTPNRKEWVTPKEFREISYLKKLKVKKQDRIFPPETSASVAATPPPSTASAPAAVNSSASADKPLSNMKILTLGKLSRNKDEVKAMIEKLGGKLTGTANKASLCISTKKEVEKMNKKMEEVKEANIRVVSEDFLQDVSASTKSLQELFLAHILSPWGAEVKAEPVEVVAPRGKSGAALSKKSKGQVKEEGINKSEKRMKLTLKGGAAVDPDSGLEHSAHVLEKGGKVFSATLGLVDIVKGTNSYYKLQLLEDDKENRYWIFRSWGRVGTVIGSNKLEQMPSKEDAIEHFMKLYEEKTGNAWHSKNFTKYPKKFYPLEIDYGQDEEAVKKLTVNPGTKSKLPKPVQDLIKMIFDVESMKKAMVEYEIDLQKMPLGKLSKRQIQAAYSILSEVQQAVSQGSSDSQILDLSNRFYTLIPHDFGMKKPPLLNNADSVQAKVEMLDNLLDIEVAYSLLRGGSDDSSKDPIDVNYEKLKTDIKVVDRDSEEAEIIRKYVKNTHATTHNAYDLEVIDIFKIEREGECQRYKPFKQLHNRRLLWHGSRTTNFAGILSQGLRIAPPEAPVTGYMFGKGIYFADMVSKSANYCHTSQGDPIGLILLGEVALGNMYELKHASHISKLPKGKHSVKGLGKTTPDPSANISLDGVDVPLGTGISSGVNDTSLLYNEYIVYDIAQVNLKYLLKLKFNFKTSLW

Experiments:
[1] = target: T1, Poly [ADP-ribose] polymerase 1 (Homo sapiens, UniProt P09874); experiment: Inhibition of PARP1 (unknown origin) at 1 uM incubated for 1 hr by ELISA relative to control
MDA-MB-231 [2] = experiment: Inhibition of cell migration in human MDA-MB-231 cells incubated for 24 hrs by wound healing assay; assay type: functional, cell-based; conditions: dose 0.2-10 µM
MDA-MB-231 [3] = experiment: Induction of apoptosis in human MDA-MB-231 cells assessed as decrease in Mcl-1 protein level incubated for 24 hrs by Western blotting analysis; assay type: functional, cell-based; conditions: dose 0.2-10 µM
[4] = target: T1, Poly [ADP-ribose] polymerase 1; experiment: Inhibition of PARP in human MDA-MB-231 cells assessed as decrease in PARP expression level at 1 uM incubated for 24 hrs by Western blotting analysis; assay type: cell-based

SMILES | inhibition [1] [%] | also measured
COc1cc(F)ccc1-c1cc(Nc2nccc(N3CCN(C(=O)c4cc(Cc5n[nH]c(=O)c6ccccc56)ccc4F)CC3)n2)ncc1F | 95 | 
COc1cc(F)ccc1-c1nc(Nc2ccc(N3CCN(C(=O)c4cc(Cc5n[nH]c(=O)c6ccccc56)ccc4F)CC3)cn2)ncc1F | 78 | 
COc1ccc(OC)c(-c2cc(Nc3cc(CN4CCN(C(=O)c5cc(Cc6n[nH]c(=O)c7ccccc67)ccc5F)CC4)ccn3)ncc2F)c1 | 95 | 
COc1cc(C(F)(F)F)ccc1-c1cc(Nc2cc(CN3CCN(C(=O)c4cc(Cc5n[nH]c(=O)c6ccccc56)ccc4F)CC3)ccn2)ncc1F | 94 | 
COc1ccc(-c2cc(Nc3cc(CN4CCN(C(=O)c5cc(Cc6n[nH]c(=O)c7ccccc67)ccc5F)CC4)ccn3)ncc2F)c(F)c1 | 90 | 
COc1cc(F)ccc1-c1nc(NC(=O)N2CCN(C(=O)c3cc(Cc4n[nH]c(=O)c5ccccc45)ccc3F)CC2)ncc1F | 95 | 
CCOc1cc(F)ccc1-c1cc(Nc2cc(CN3CCN(C(=O)c4cc(Cc5n[nH]c(=O)c6ccccc56)ccc4F)CC3)ccn2)ncn1 |  | inhibition (MDA-MB-231 [2]): Dose-dependent-effect; Activity (MDA-MB-231 [3]): Dose-dependent-effect; inhibition [4]: Active
COc1cc(C(F)(F)F)ccc1-c1cc(Nc2cc(CN3CCN(C(=O)c4cc(Cc5n[nH]c(=O)c6ccccc56)ccc4F)CC3)ccn2)ncn1 | 95 | 
COc1cc(F)ccc1-c1cc(Nc2nccc(N3CCN(C(=O)c4cc(Cc5n[nH]c(=O)c6ccccc56)ccc4F)CC3)n2)ncn1 | 97 | 
COc1ccc(-c2cc(Nc3cc(CN4CCN(C(=O)c5cc(Cc6n[nH]c(=O)c7ccccc67)ccc5F)CC4)ccn3)ncn2)c(F)c1 | 92 | 
